Literature values in patent US20130165771A1 (priority 2011, published 2013).

Conditions: cited from earlier work

## fluorescein isothiocyanate dextran [FITC-Dextran]
  stability in vivo: at least 24 hours
